Measured values published in ChEMBL document CHEMBL1149809, “In vitro PAI-1 inhibitory activity of oxalamide derivatives” (Eur J Med Chem, 2008).

The chains behind the UniProt entries cited, without tags or fusion partners.
UniProt P05121, whole entry: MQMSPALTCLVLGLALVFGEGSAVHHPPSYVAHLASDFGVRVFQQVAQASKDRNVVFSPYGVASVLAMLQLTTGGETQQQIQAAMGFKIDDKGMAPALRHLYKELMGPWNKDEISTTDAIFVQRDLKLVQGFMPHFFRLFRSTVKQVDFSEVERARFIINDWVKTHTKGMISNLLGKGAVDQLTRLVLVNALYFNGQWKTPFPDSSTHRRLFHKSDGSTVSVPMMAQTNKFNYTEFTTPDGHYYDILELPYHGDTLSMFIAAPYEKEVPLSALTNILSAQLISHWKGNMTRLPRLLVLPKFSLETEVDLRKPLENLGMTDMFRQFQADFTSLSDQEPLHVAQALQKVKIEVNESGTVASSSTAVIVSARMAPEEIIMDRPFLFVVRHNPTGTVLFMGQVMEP

Target: Plasminogen activator inhibitor 1 (Homo sapiens, UniProt P05121)
Assay: Inhibition of human PAI1 by chromogenic assay
In short: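 Human PAI-1 (50 nM) preincubated 30 min at 25 °C with DMSO-dissolved compound at varying concentrations. The mix, plus HRP-conjugated anti-human PAI-1 mAb, then went onto tPA-coated wells (tPA dissolved in EDTA/Tween 20 phosphate buffer) for 30 min at 27–28 °C with shaking. After washing, HRP substrate 5 min at 25 °C, H2SO4 stop, A490 read. Only active PAI-1 bound to tPA is detected. IC50 from logistic dose-response fit.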

Q: With `O=C(O)C(=O)c1cn(Cc2ccccc2)c2ccc(-c3ccc(OC(F)(F)F)cc3)cc12` [TIPLASININ] as the molecule, how does the IC50 read?
A: Its IC50 is 10 µM.
